Data reported in US20070202166A1, “Method for increasing the rate and consistency of bioavailability of supplemental dietary ingredients” (priority 2006, published 2007).

Assay: Solubility test: powder added to stirred water until saturated, gravity filtered, dry residue on filter paper weighed
Format: physicochemical
Details: for Max Amount Dissolved: 100 mL water, 1 g increments until visually saturated; for Dry Powder On Filter: Whatman 41 filter paper, particle retention 20-25 μm

glycine-L-arginine-alpha-ketoisocaproic acid calcium
Max Amount Dissolved (Fine-milled powder): 18 g
Dry Powder On Filter (Fine-milled powder): 0.31 g
Max Amount Dissolved (Regular powder): 18 g
Dry Powder On Filter (Regular powder): 0.42 g
Fold Change (unfiltered regular substance divided by unfiltered fine-milled substance) (regular versus fine-milled, potential theoretical improvement in bioavailability): 1.4 fold
